The record followed here is ChEMBL document CHEMBL1157539, “Thousands of chemical starting points for antimalarial lead identification” (Nature, 2010).

Only a part is listed here, and it is no random draw.

The test system of this assay is HepG2. In words: GSK_TCMDC: Percent inhibition of human HepG2 cell line. Test compounds present at 10uM. In kind it is functional.

For the compound `COc1cc(C(=O)NC(SC2=NCCS2)C(Cl)(Cl)Cl)cc(OC)c1OC` (stereo unspecified), the inhibition was found to be 4%.
